In the library only some 13% were active in any assay of this set; here they are far more common.
miR-21 reporter = miR-21 reporter, rising signal; Potency, µM (titrated, usually from 38.3 µM), without a hit: at the highest dose reporter change, positive = more light; AID 2288; 340,000 tested, under 10 active; HeLa miR-21 FLuc reporter, luciferase, 48 h; active = well fitted rising curve with a large enough effect; inconclusive = small, poorly fitted or top-dose-only effect; inactive = no such curve, though single readings can be large or run the other way;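 note: % of control where 0% means no effect; miR-21 action dims this reporter so a rising signal means less miR-21 action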
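HeLa miR-21-FLuc reporter line, endogenous miR-21; 2000 cells/well in DMEM/10% FBS; compound titration up to ~40uM final, 48 h, 37 degree Celsius; luciferase detection reagent, 15 min lysis, CCD luminescence.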
G9a block = G9a (human) methyltransferase inhibition; Q96KQ7; G9a H3K9 monomethylation, AlphaScreen, 2 h; Potency, µM (doses to about 102 µM), inactives show at the highest dose activity, negative = inhibition, hits mostly inhibitors; actives 8.8% (n = 350,000); AID 504332; also: potency is read from the fitted curve at half-maximal effect; % is scaled to controls: 0 for no effect and ±100 for the full control effect; nearly all actives have a fitted effect of over 75% in size
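Quantitative HTS format: methyltransferase activity on a biotin-tagged H3K9 peptide is measured by AlphaScreen, using a rabbit anti-monomethyl-H3K9 antibody with streptavidin donor and anti-IgG acceptor beads. Final levels are 20 nM enzyme, 500 nM peptide, 20 uM SAM; 2 h RT.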
JMJD2E inh = blocks human JMJD2E demethylase activity; actives 1.6% (n = 230,000); JMJD2E catalytic domain, FDH-coupled NADH fluorescence (FDH is formaldehyde dehydrogenase); Potency, µM (series often up to 57.1 µM), inactives show top-dose activity change, negative = inhibition, hits mostly inhibitors; active = well fitted inhibition curve with a large enough effect, not every such curve was filed as active; inconclusive = small, poorly fitted or top-dose-only effect, or another doubt; inactive = no such curve, though single readings can be large or run the other way;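 also: potency is read from the fitted curve at half-maximal effect; 0% = wells with enzyme and -100% = buffer wells without enzyme; nearly all actives have a fitted effect of over 50% in size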
ALDH1A1 block = inhibitors of human aldehyde dehydrogenase 1A1; actives 7.3% (n = 220,000); Purified ALDH1A1, NADH fluorescence, propionaldehyde substrate; Potency, µM (highest dose often 75.3 µM), for inactives: at the top dose activity, negative = inhibition, usual class: inhibitors; AID 1030; P00352; active = well fitted inhibition curve with a large enough effect, not every such curve was filed as active; inconclusive = small, poorly fitted or top-dose-only effect, or another doubt; inactive = no such curve, though single readings can be large or run the other way;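 also: potency is read from the fitted curve at half-maximal effect; plate controls were no enzyme wells and a reference inhibitor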
LMNA splice mod = changes lamin A minigene splicing in HeLa cells. HeLa LMNA splicing GFP/RFP minigene ratio, 48 h. Potency, µM (titrated, usually from 46.1 µM), for inactives: top-dose ratio change, negative = inhibition, most hits filed as inhibitors. actives 0.01% (n = 200,000); active = well fitted inhibition curve with a large enough effect in the signal ratio, with a control signal flat, not every such curve was filed as active; inconclusive = small, poorly fitted or top-dose-only effect, or effect the other way, or a change in a side signal; the % refers to the signal ratio; also: potency is read from the fitted curve at half-maximal effect; % is scaled to controls: 0 for no effect and ±100 for the full control effect
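S3 HeLa cells stably expressing lamin A-EGFP splicing minigene plus DsRed2, 600 cells/well, 48 h compound exposure at 37C. Laser-scanning cytometry; analysed as GFP (500-530 nm)/RFP (575-640 nm) total intensity ratio; 0.5% DMSO vehicle.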
Sfp PPTase inh = inhibitors of Bacillus subtilis Sfp phosphopantetheinyl transferase; Q9F4F7; Biochemical Sfp PPTase activity, qHTS; Potency, µM, inactives show max response, negative = inhibition, actives largely listed as inhibitors; hit rate 3.5% among 310,000; AID 1490; active means well fitted inhibition curve with a large enough effect; inconclusive means small, poorly fitted or top-dose-only effect, or another doubt; inactive means no such curve, though single readings can be large or run the other way;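 further: the enzyme is Sfp with the accession as filed and its product quenches rhodamine fluorescence; potency means the concentration at half of the fitted maximal effect; 0% = enzyme reaction without inhibitor and -100% = no enzyme wells; top concentration of the series not given in the record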
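Reaction rates are the 30-min fluorescence difference (ex 525, em 598 nm) in wells containing 15 nM Sfp, 5 uM rhodamine-CoA and 12.5 uM BHQ-2-YbbR at pH 7.6 with 10 mM MgCl2.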
An asterisk follows results filed as active; ? = inconclusive; . = not tested or not shown; [ ] = dose if it differs, or a comment. Unless noted, calls follow the shape of the dose curve; as a rule, active = well fitted curve in the direction sought with a large enough effect; inconclusive = small, poorly fitted or top-dose-only effect, or another doubt; inactive = no such curve, though single readings can be large; an effect the other way counts as inactive or inconclusive.

Below each SMILES: miR-21 reporter | G9a block | JMJD2E inh | ALDH1A1 block | LMNA splice mod | Sfp PPTase inh
Cc1nc2ccc(NC(=O)c3ccc(Cl)c([N+](=O)[O-])c3)cc2s1
 : -16.7% | ? | 5.9% | 5.1% | -14.2% | 0.6%
Cc1nc2ccc(NC(=O)c3cc([N+](=O)[O-])cc([N+](=O)[O-])c3Cl)cc2s1
 : -3.0% | 6.31µM* | -4.4% | ? | ? | ?
CN(Cc1ccccc1)C(=O)C(=O)Nc1ccc2nc3n(c(=O)c2c1)CCCCC3
 : 14.9% | -1.9%[59 µM] | . | . | . | .
CCCNC(=O)CN1C(=O)COc2ccc(S(=O)(=O)N3CC(C)CC(C)C3)cc21 (stereo not given)
 : -1.2% | 31.6µM* | . | . | . | 14.3%
CCCNC(=O)CN1C(=O)COc2ccc(S(=O)(=O)N3CCC(C)CC3)cc21
 : 2.8% | -0.3%[59 µM] | . | . | . | .
Nc1nc(SCC(=O)N2CCN(c3ccccc3)CC2)n[nH]1
 : -2.9% | 39.8µM* | . | . | . | 3.9%
O=C(CSc1n[nH]c(-c2ccccc2Cl)n1)N1CCN(c2ccccc2)CC1
 : -6.7% | -22.1%[59 µM] | . | . | ? | .
Cc1nc(SCC(=O)N2CCN(c3ccccc3)CC2)n[nH]1
 : -0.6% | 39.8µM* | . | . | . | -10.8%
Nc1nc(SCC(=O)N2CCN(c3ccc(F)cc3)CC2)n[nH]1
 : . | -12.5%[59 µM] | . | . | . | .
Nc1nnc(SCC(=O)N2CCN(c3ccccc3)CC2)s1
 : 0.8% | 50.1µM* | -2.9% | 8.6% | 0.1% | 11.4%
N#Cc1cc(-c2ccccc2)nn1-c1ccccc1
 : -19.6% | ? | ? | 22.4µM* | 14.1% | 17.8µM*
Cc1cccc2c(=O)cc(CSc3ccccc3NC(=O)c3cccc(Br)c3)[nH]c12
 : 3.6% | -2.1%[59 µM] | . | . | -11.7%[46 µM] | .
CCCCC(OC(=O)CN1C(=O)COc2ccccc21)C(=O)NC1CCCCC1 (stereo not given)
 : -2.5% | -1.3% | . | . | . | 8.3%
CC(=O)N1CCc2c(sc3c2c(=O)n(-c2ccccc2Cl)c(=O)n3C)C1
 : -2.5% | -3.2%[59 µM] | . | . | -18.5%[46 µM] | .
COc1ccc(CNC(=O)Cn2c(=O)cc(-c3ccccc3)c3c(C)nn(C)c32)cc1
 : -2.0% | 2.0%[59 µM] | . | . | -6.7%[46 µM] | .
Nc1nc(SCC(=O)Nc2cc(-c3ccccc3)nn2-c2ccccc2)n[nH]1
 : -10.9% | 16.4%[59 µM] | -5.3% | 10µM* | -10.1% | 14.7%
Nc1ccccc1Nc1cc(-c2ccccc2)[nH]n1
 : -17.0% | 39.8µM* | 20µM* | ? | ? | -1.7%
Nc1ccccc1Nc1cc(-c2ccccc2)nn1-c1ccccc1
 : -27.3% | 31.6µM* | ? | 4.5% | ? | -9.6%
Nc1ccccc1Nc1ccccc1
 : -2.4% | . | ? | ? | ? | -26.5%
Cn1c(=O)c2[nH]c(CCC(=O)O)nc2n(C)c1=O
 : . | . | . | 8.9%[13.5 µM] | . | .

Single records, as listed above. Values in the order: miR-21 reporter	G9a block	JMJD2E inh	ALDH1A1 block	LMNA splice mod	Sfp PPTase inh
Nc1ccccc1Nc1cc(-c2ccccc2)nn1-c1ccccc1 reads -27.3%	31.6µM*	?	4.5%	?	-9.6%
COc1ccc(CNC(=O)Cn2c(=O)cc(-c3ccccc3)c3c(C)nn(C)c32)cc1 reads -2.0%	2.0%[59 µM]	.	.	-6.7%[46 µM]	.

3 compounds from above, reduced to LMNA splice mod and miR-21 reporter.
SMILES,LMNA splice mod,miR-21 reporter
Nc1nnc(SCC(=O)N2CCN(c3ccccc3)CC2)s1,0.1%,0.8%
N#Cc1cc(-c2ccccc2)nn1-c1ccccc1,14.1%,-19.6%
Cc1cccc2c(=O)cc(CSc3ccccc3NC(=O)c3cccc(Br)c3)[nH]c12,-11.7%[46 µM],3.6%

(list continues)
Labels used below: A = miR-21 reporter; B = G9a block; C = JMJD2E inh; D = ALDH1A1 block; E = LMNA splice mod; F = Sfp PPTase inh
> Cc1ccc(CNc2ccc(-c3nc(C(C)C)no3)cc2[N+](=O)[O-])cc1
  A = -7.4%	B = -8.4%[59 µM]	C = .	D = .	E = .	F = .

> CCc1cccc2sc(N3CCN(C(=O)c4ccc([N+](=O)[O-])o4)CC3)nc12
  A = .	B = 31.6µM*	C = .	D = .	E = .	F = .

> CCN(Cc1ccccc1)C(=O)c1nc(-c2cccc(F)c2)n2c1CCCCC2
  A = ?	B = -49.6%[59 µM]	C = .	D = .	E = 0.2%[46 µM]	F = .

> COc1ccc(CNC(=O)CN(C(=O)c2ccc(CN3CCOCC3)o2)C2CCCC2)cc1
  A = -5.5%	B = 3.55µM*	C = -9.2%	D = 11.2µM*	E = -7.9%	F = -2.0%

> CC(=O)Nc1ccc(-c2csc(NC(=O)CC(NC(C)=O)c3ccccc3)n2)cc1 (stereo not given)
  A = -3.3%	B = 44.7µM*	C = .	D = .	E = .	F = ?

> CC(=O)Nc1ccc(-c2csc(Nc3ccc(S(N)(=O)=O)cc3)n2)cc1
  A = 1.2%	B = -0.3%	C = 2.8%	D = 16.4%	E = .	F = 17.4%

> CC(=O)NC(CC(=O)Nc1nc(-c2ccc(N(C)S(C)(=O)=O)cc2)cs1)c1ccccc1 (stereo not given)
  A = ?	B = ?	C = .	D = .	E = .	F = 12.2%

> CC(=O)Nc1ccc(-c2csc(NC(C)c3ccccc3)n2)cc1 (stereo not given)
  A = 0.0%	B = ?	C = -6.0%	D = 17.8µM*	E = .	F = 50.1µM*
